In general, logP refers to the decadic logarithm of the partition coefficient of the neutral form, usually between octanol and water. A higher logP goes with a more lipophilic compound.

The results in this text go back to the SangsterLogP compilation.

`O=C(O)C(O)c1ccccc1` (stereo unspecified) displayed a logP of 0.64.
